Earlier results as cited in patent US5045452A, “Method for evaluating nephrotoxicity” (Brigham and Women's Hospital, priority 1988, dated 1991).

Test system: N-acetyl-beta-D-glucosaminidase
Conditions: exposed workers

Substance: mercury
- urinary acetyl glucosaminidase excretion: elevated
